Experimental data reported in US4273704A, “N-Adamantane-substituted tetrapeptide amides” (G. D. Searle & Co., priority 1979, dated 1981).

Test system: opiate receptor sites
Details: in the absence of sodium ion; guinea pig brain membrane fraction; 3H-naloxone 2.5 nM

CN1CC[C@]23c4c5ccc(O)c4O[C@H]2[C@@H](O)C=C[C@H]3[C@H]1C5 [morphine]
ID50 concentration of the drug inhibiting 3H-naloxone binding: 7.4×10^-7
